# This is a selection; strong and weak results do not stand in their true shares. Calls of active or inactive are those of the source. The call rests on the fitted dose curve; in most records, active means well fitted inhibition curve with a large enough effect; inconclusive means small, poorly fitted or top-dose-only effect; inactive means no such curve, though single readings can be large or run the other way.
# By UniProt entry, the sequences of proteins in these tests, tags left out.
# UniProt O89049, whole entry: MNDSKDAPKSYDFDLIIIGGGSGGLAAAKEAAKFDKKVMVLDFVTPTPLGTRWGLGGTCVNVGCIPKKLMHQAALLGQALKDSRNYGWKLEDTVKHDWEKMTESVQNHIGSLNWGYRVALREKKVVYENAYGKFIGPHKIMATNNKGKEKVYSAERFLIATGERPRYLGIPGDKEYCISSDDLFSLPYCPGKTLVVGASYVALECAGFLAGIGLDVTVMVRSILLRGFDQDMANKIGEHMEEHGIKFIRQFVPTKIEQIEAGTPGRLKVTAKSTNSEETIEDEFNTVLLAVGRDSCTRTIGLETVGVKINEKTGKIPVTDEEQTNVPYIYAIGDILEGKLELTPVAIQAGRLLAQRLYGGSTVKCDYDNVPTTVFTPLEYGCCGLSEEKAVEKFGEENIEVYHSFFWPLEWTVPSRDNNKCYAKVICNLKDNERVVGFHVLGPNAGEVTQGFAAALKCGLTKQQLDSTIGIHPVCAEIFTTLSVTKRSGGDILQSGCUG
# Biological target: Thioredoxin reductase 1, cytoplasmic (Rattus norvegicus) (UniProt O89049)
# Assay: qHTS Assay for Substrates of Mammalian Selenoprotein Thioredoxin Reductase 1 (TrxR1): qHTS; further: nearly all actives have a fitted effect of over 50% in size
# Details: purified TrxR1 substrate turnover, NADPH consumption readout; at 57.1 µM (top of the series) unless noted
# On the % scale 0 is the no-effect control and ±100 the full control effect.
row,Structure (SMILES),"activity change, negative = substrate turnover"
1,CC(C)(C)c1ccc(OP(C)(=O)Nc2ccc(SC(F)(F)F)cc2)cc1 (configuration not stated),inactive: -16.1% [at 114 µM]
2,Cc1ccc(NP(=O)(Oc2cccc(C)c2)Oc2cccc(C)c2)nc1,inactive: 5.59%

# From PubChem BioAssay AID588456 (National Center for Advancing Translational Sciences (NCATS), 2011)
